Only a part of the results on these compounds is given; other tests are left out.

The results in this text go back to patent publication US9612240B2, “Biomimetic chemical sensors using nanoelectronic readout of olfactory receptors” (The Trustees Of The University Of Pennsylvania, priority 2010, dated 2017).

For one test, the system named is mOR203-1. Put plainly: Vapor response of mOR-functionalized carbon nanotube transistor. Particulars: mOR203-1 in digitonin micelles, single sensor, FIG. 4.
Test [1] concerns mouse olfactory receptor proteins (mORs). Put plainly: Vapor response of mOR-functionalized NT devices, mOR not specified. Particulars: mOR not given. The format is binding.

On to `Cc1ccc([N+](=O)[O-])cc1[N+](=O)[O-]`, for which the change in conductance result in the test with mOR203-1 was “negative changes in conductance”. In addition, in test [1], the “lowest concentration producing a response” value amounted to 7 ppb.
